Assays:
V79 [1] = test: The cytotoxicity in vitro against Chinese hamster V-79 cells at concentration of 0.5 mM
V79 [2] = test: The in vitro radioprotective effect measured against Chinese hamster V-79 cells at concentration of 0.1 mM
Mus musculus [3] = test: %Survival of compound was measured using CD2F1 male mice in group of ten at 473 mg/kg dose on day 30
V79 [4] = test: The cytotoxicity in vitro against Chinese hamster V-79 cells at concentration of 1 mM
Mus musculus [5] = test: Mean survival time of compound was measured using CD2F1 male mice in group of ten at 473 mg/kg dose on day 30
[6] = Mean survival time of treated group(T) and Mean survival time of control group(C) was measured using CD2F1 male mice at 473 mg/kg dose
V79 [7] = test: The cytotoxicity in vitro against Chinese hamster V-79 cells at concentration of 0.1 mM
Mus musculus [8] = test: The percent increase in life span was measured using CD2F1 male mice at 473 mg/kg dose

SMILES: CNCCCNCCSP(=O)(O)O
- Survival (V79 [1]): 95%
- DMF (V79 [2]): 2
- Survival (Mus musculus [3]): 80%
- Survival (V79 [4]): 97%
- MST (Mus musculus [5]): 27
- Ratio [6]: 2.6
- Survival (V79 [7]): 100%
- ILS (Mus musculus [8]): 81%

Reference: ChEMBL document CHEMBL1152029 (1997)
